According to patent US7196083B2, “Heteropolycyclic inhibitors of protein kinases” (priority 2000, dated 2007):

System: A-549 (human lung carcinoma)
Assay: [3H] thymidine uptake cell proliferation assay, A549
Format: cell-based
Details: read-out: Cell Proliferation in A459 IC50 in nm; A459 cells

Cc1nc2nnnn2nc1C
IC50: > 10 µM
